In brackets after ≈: the same amount, converted by molar mass.
Legend:
Assay in all cases: MIC by micro broth dilution method in Mueller-Hinton broth (NCCLS)
Format in all cases: cell-based
[1] = tested on: Mycobacterium smegmatis SG 987; settings: Mycolicibacterium smegmatis, SG987
M. vaccae IMET 1010670 = settings: Mycolicibacterium vaccae, IMET1010670
M. fortuitum B = settings: Mycolicibacterium fortuitum

CCOC1(OCC)CCN(c2nc(=O)c3cc([N+](=O)[O-])cc([N+](=O)[O-])c3s2)CC1 [Compound 6, 2-(4,4-diethoxypiperidin-1-yl)-6,8-dinitro-1,3-benzothiazin-4-one]
MIC [1]: > 10 µg/mL
MIC (M. vaccae IMET 1010670): 0.04 µg/mL (≈ 0.0942 µM)
MIC (M. fortuitum B): 0.08 µg/mL (≈ 0.188 µM)

Source: patent US20110160193A1, “New Benzothiazinone Derivatives and Their Use as Antibacterial Agents” (Leibniz Institute for Natural Product Research and …, priority 2006, published 2011)
